Results taken from PubChem BioAssay AID376 (PDSP, 2006).
The entries are a selection whose mix differs from that of the whole data set. Some salts or complexes appear as unconnected parts, following the source record. Active and inactive are the calls of the source. No stated cut-off is given here; in the data, active means hERG blockade below about -20% or above about 20%; inactive means in between.

Protein sequences, listed by entry. Tags and fused reporters are not part of them.
UniProt Q12809, whole entry: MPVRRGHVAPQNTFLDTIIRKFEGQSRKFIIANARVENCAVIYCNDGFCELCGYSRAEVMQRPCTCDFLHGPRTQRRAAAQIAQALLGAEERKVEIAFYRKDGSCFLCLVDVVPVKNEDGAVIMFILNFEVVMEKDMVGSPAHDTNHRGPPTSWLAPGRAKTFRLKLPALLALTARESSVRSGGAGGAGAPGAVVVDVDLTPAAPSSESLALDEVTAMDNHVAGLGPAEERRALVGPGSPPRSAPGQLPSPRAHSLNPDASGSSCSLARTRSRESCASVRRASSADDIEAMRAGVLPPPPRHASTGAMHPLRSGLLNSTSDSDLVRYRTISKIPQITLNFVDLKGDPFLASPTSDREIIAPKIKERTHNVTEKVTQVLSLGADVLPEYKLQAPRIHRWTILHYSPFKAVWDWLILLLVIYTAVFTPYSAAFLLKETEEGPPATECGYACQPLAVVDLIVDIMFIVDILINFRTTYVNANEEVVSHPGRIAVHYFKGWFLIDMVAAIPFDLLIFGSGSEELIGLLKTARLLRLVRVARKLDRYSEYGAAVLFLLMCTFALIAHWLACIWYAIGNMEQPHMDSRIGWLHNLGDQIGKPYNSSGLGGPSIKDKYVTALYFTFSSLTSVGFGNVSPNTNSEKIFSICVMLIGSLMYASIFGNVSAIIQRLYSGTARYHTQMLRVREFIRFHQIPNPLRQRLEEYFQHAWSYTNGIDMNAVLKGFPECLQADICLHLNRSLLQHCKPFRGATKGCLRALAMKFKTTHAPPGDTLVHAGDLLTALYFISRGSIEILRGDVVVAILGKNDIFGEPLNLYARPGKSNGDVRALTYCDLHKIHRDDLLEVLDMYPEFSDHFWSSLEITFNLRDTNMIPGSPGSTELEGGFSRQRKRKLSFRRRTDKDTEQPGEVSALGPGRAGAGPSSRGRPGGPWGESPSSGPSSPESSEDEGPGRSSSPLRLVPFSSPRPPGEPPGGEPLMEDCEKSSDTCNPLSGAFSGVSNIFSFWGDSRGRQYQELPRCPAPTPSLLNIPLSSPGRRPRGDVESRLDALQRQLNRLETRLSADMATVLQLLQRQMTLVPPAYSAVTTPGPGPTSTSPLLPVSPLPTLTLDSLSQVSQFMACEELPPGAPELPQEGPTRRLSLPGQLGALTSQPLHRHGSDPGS

Target: Voltage-gated inwardly rectifying potassium channel KCNH2 (Homo sapiens) (UniProt Q12809)
Assay: KCNH2 potassium channel function modulators, cell-based (AID 376);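 further: 0% = buffer alone and 100% = reference blocker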
Conditions: hERG-expressing cells, channel activity single-concentration screen; concentration not given here

Compound	hERG blockade
NNC(NN)NN.n1nc(-c2nn[nH]n2)n[nH]1	inactive: -11.6%
N1=C(c2nnc(-c3nn[nH]n3)nn2)NNN1	inactive: 9.65%
[Au+].[Au+].c1ccc([PH+](c2ccccc2)c2ccccc2)cc1.c1ccc([PH+](c2ccccc2)c2ccccc2)cc1.n1n[n-]c(-c2nnn[n-]2)n1	inactive: 0.855%
